The values that follow come from ChEMBL document CHEMBL5390309, “Characterization of 2,4-Dianilinopyrimidines Against Five P. falciparum Kinases PfARK1, PfARK3, PfNEK3, PfPK9, and PfPKB” (2023).

The test system of series [1] is HepG2. Description: Cytotoxicity against human HepG2 cells assessed as cell viability measured after 44 hrs by celltiter-fluor assay.
Series [2] is described as follows: Permeability of compound incubated for 16 hrs by PAMPA based LC-MS/MS analysis. In general terms: In PAMPA a lipid-coated filter parts donor from acceptor wells.
Series [3] is described as follows: Plasma protein binding in human assessed as bound fraction incubated for 6 hrs by LC/MS/MS based balanced dialysis method relative to control.
Series [4] is described as follows: Stability of the compound assessed as parent compound remaining measured after 6 hrs by LC-MS/MS analysis.

Bounds are passed on as bounds.

The term CC50 denotes the concentration at which the toxic effect on the cells reaches its halfway point. With `COc1cc(N2CCOCC2)ccc1Nc1ncc(Br)c(Nc2ccccc2NS(C)(=O)=O)n1`, the CC50 in series [1] was 9800 nM. Also, the permeability in series [2] worked out at 18.2 ×10⁻⁶ cm/s. Further, the PPB in series [3] turned out to be 99.3%. In addition, the Stability in series [4] was 101%.
In the case of `COc1cc(N2CCOCC2)ccc1Nc1ncc(C#N)c(Nc2ccccc2NS(C)(=O)=O)n1`, the CC50 in series [1] was greater than 50000 nM. For the same molecule, in series [2], the permeability was found to be 15.1 ×10⁻⁶ cm/s. In addition, in series [3], the PPB came out at 94.6%. Also, the Stability in series [4] came to 92%.
On the same counts, the results for `Cc1cc(Nc2ncc(Cl)c(Nc3ccccc3NS(C)(=O)=O)n2)ccc1N1CCOCC1` are 2100 nM, 20.9 ×10⁻⁶ cm/s, 99.1% and 101%.
The corresponding values for `COc1cc(Nc2ncc(Cl)c(Nc3ccccc3NS(C)(=O)=O)n2)ccc1N1CCOCC1` are 1600 nM, 20.9 ×10⁻⁶ cm/s, 98.6% and 103%.
Regarding `COc1cc(N2CCOCC2)ccc1Nc1ncc(I)c(Nc2ccccc2NS(C)(=O)=O)n1`, the CC50 in series [1] is greater than 15000 nM. Besides, the permeability in series [2] was determined as 15.5 ×10⁻⁶ cm/s. Also, the PPB in series [3] was 99.5%. Besides, the Stability in series [4] was determined as 99%.
In series [2], `COc1cc(N2CCOCC2)ccc1Nc1ncc(Cl)c(Nc2ccccc2NS(C)(=O)=O)n1` displayed a permeability of 21.4 ×10⁻⁶ cm/s. Moreover, the PPB in series [3] stood at 99%. Besides, in series [4], the Stability turned out to be 97%.
Consider `CS(=O)(=O)Nc1ccccc1Nc1nc(Nc2ccc(N3CCOCC3)c(Cl)c2)ncc1Cl`, for which the CC50 in series [1] worked out at 2800 nM. In series [2], the permeability was 12 ×10⁻⁶ cm/s. Further, the PPB in series [3] is 99.4%. For the same molecule, in series [4], the Stability amounted to 98%.
The corresponding values for `COc1cc(N2CCOCC2)ccc1Nc1ncc(C(F)(F)F)c(Nc2ccccc2NS(C)(=O)=O)n1` are greater than 15000 nM, 17.8 ×10⁻⁶ cm/s, 97.6% and 103%.
On the same counts, the results for `CS(=O)(=O)Nc1ccccc1Nc1nc(Nc2ccc(N3CCOCC3)cc2)ncc1Cl` are 1500 nM, 19.1 ×10⁻⁶ cm/s, 95.9% and 105%.
In the case of `COc1cc(N2CCOCC2)ccc1Nc1ncc(C2CC2)c(Nc2ccccc2NS(C)(=O)=O)n1`, the half-maximal cytotoxic concentration (CC50) in series [1] is 23000 nM. Further, the permeability in series [2] worked out at 14.8 ×10⁻⁶ cm/s. In series [3], the PPB worked out at 97.6%. For the same molecule, the Stability in series [4] came to 101%.
